Experimental data from publication PMC6408513, “A Novel Lactate Dehydrogenase Inhibitor, 1-(Phenylseleno)-4-(Trifluoromethyl) Benzene, Suppresses Tumor Growth through Apoptotic Cell Death” (Scientific Reports, 2019).

Molecular target: lactate dehydrogenase A (LDHA) (Homo sapiens, UniProt P00338)

NC(=O)C(=O)O [oxamate]
IC50: 131 µM
